These are literature values, as cited in patent US5905089A, “Use of sesquiterpene lactones for treatment of severe inflammatory disorders” (Board of Supervisors of Louisiana State University and …, priority 1998, dated 1999).

Each structure is given as a SMILES string.

In this data set the test system is COX-1. To be noted: in contrast to suppression of COX-2 expression; cited from earlier work.

As for `C[C@@H]1C[C@H]2O[C@@H]2/C=C\C=C\C(=O)Cc2c(Cl)c(O)cc(O)c2C(=O)O1` [radicicol], the “effect on COX-1” value was “without affecting COX-1”.
